According to PubChem BioAssay AID2171 (The Scripps Research Institute Molecular Screening Center, 2009):
The entries are a selection whose mix differs from that of the whole data set. Activity calls are given as the source filed them.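 The calls were made as follows: active = inhibition above the hit cutoff set in the earlier primary screen (cut at about 27% in these data); inactive = the rest.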

Protein sequences, listed by entry. Tags and fused reporters are not part of them.
UniProt Q9Y570, whole entry: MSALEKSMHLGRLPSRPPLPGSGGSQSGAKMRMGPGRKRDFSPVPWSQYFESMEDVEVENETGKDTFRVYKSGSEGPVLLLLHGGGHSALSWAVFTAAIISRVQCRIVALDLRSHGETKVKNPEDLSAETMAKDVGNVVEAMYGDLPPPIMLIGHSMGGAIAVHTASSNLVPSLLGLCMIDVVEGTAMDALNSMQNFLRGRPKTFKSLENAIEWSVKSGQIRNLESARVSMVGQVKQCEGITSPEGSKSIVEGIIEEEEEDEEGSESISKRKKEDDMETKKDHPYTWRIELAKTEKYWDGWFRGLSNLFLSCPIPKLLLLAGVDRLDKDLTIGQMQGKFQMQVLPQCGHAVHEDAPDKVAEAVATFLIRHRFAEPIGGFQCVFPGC

Each molecule was assayed against Protein phosphatase methylesterase 1 (Homo sapiens) (UniProt Q9Y570) (assay: PME-1 inhibitor activity retest, confirmation, biochemical, fluorescence polarization, FP-Rh probe, triplicate (AID 2171;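 also: 0% = enzyme with DMSO and 100% = wells lacking PME-1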)). Conditions: recombinant PME-1, FP-Rh probe fluorescence polarization; at 5.9 µM; active compounds read high.
For `CP(=O)(Nc1ccccc1Br)Oc1ccccc1` (centres undefined), the inhibition was active: 62.2%.
`COc1ccccc1OP(C)(=O)Nc1c(C)cccc1C` (centres undefined) was tested, and the inhibition was active: 47.1%.
`CCCCCOc1ccc(NP(C)(=O)Oc2ccc(Cl)cc2Cl)cc1` (centres undefined) was tested, and the inhibition was active: 73.8%.
With `CCOC(=O)c1ccc(NP(C)(=O)Oc2ccc(Cl)cc2)cc1` (centres undefined) the inhibition was active: 48%.
